Experimental data from ChEMBL document CHEMBL1124880 (J Med Chem, 1990).

The chains behind the UniProt entries cited, without tags or fusion partners. Where a name states a change or a piece, a line headed by the entry shows the natural chain unless it says otherwise.
UniProt P25099, whole entry: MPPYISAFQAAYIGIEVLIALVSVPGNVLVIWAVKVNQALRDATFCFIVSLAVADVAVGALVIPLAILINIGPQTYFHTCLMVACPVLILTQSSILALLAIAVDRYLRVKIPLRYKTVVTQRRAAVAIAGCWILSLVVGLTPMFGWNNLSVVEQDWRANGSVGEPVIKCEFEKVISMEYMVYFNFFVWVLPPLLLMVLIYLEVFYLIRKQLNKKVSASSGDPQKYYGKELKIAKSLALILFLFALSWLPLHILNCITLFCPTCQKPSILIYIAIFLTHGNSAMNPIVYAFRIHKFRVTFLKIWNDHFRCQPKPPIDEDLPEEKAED
UniProt P29276: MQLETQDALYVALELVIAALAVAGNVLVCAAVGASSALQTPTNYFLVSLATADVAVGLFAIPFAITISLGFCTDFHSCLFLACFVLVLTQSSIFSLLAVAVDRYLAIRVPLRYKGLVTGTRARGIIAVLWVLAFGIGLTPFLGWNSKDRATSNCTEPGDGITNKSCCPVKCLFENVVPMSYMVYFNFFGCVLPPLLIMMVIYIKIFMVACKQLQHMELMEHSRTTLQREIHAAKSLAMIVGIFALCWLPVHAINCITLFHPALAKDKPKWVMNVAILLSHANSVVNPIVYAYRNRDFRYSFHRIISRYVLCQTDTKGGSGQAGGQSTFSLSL
UniProt P30543: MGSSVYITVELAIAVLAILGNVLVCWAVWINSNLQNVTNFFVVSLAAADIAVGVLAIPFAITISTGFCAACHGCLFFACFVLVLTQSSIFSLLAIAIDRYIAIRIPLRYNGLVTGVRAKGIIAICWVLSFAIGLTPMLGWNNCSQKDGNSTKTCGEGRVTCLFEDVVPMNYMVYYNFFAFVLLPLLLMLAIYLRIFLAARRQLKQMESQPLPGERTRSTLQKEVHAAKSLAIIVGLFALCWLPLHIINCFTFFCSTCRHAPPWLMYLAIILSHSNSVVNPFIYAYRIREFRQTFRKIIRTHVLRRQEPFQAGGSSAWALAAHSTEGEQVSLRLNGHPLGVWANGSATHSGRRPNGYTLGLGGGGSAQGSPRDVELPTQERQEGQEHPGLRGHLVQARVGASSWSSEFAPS

What was measured:
Adenosine receptor A1 = Adenosine receptor A1 (Rattus norvegicus, UniProt P25099); test: Binding affinity towards the adenosine A1 receptor in cerebral cortices of Sprague-Dawley male rats using [3H]CHA as radioligand.
Adenosine A2 receptor = Adenosine A2 receptor (Rattus norvegicus, UniProt P29276+P30543); test: Binding affinity for Adenosine A2 receptor in corpora striata of rats using [3H]NECA; format: protein assay

| Ki (Adenosine A2 receptor) | SMILES | IC50 (Adenosine receptor A1) |
| --- | --- | --- |
|  | Nc1nc2ccc(Cl)cc2c2nc(-c3ccco3)nn12 [CGS-15943] | 6 nM |
| 30000 nM | C[C@H](Cc1ccccc1)Nc1ncnc2c1ncn2[C@@H]1O[C@H](CO)[C@@H](O)[C@H]1O [(R)-PIA] |  |
